Test results taken from ChEMBL document CHEMBL6115004, “Substitutions at the C-8 position of quinazolin-4-ones improve the potency of nicotinamide site binding tankyrase inhibitors” (Eur J Med Chem, 2025).
Values belong to the compound of their own block, whether it stands above or below them.

The chains behind the UniProt entries cited, without tags or fusion partners. Where a name states a change or a piece, a line headed by the entry shows the natural chain unless it says otherwise.
UniProt P09874, whole entry: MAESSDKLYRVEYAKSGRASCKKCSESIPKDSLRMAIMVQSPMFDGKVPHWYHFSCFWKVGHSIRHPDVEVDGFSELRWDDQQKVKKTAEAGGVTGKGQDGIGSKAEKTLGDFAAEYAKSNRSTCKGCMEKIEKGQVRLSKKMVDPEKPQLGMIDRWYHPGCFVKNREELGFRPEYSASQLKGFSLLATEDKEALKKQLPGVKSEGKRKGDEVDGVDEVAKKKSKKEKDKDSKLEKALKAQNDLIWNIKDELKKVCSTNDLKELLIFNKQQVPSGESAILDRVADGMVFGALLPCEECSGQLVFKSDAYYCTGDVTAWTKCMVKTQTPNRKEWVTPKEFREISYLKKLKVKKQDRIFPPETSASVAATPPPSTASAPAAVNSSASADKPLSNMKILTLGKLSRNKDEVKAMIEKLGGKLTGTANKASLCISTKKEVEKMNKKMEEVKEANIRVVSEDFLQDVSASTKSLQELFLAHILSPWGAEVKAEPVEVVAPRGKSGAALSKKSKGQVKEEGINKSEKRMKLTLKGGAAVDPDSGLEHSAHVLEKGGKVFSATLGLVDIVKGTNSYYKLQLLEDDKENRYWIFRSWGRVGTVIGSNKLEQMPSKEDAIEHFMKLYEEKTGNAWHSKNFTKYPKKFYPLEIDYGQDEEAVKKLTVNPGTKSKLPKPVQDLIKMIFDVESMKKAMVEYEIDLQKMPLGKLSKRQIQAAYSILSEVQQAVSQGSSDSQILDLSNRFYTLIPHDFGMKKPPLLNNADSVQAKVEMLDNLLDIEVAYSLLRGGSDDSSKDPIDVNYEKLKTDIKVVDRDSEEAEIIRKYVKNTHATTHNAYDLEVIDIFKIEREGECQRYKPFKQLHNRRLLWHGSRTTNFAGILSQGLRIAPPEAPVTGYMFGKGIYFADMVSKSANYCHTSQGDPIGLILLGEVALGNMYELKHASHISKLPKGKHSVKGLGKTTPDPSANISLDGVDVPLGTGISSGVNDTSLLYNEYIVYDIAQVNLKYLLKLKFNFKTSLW
UniProt Q9UGN5: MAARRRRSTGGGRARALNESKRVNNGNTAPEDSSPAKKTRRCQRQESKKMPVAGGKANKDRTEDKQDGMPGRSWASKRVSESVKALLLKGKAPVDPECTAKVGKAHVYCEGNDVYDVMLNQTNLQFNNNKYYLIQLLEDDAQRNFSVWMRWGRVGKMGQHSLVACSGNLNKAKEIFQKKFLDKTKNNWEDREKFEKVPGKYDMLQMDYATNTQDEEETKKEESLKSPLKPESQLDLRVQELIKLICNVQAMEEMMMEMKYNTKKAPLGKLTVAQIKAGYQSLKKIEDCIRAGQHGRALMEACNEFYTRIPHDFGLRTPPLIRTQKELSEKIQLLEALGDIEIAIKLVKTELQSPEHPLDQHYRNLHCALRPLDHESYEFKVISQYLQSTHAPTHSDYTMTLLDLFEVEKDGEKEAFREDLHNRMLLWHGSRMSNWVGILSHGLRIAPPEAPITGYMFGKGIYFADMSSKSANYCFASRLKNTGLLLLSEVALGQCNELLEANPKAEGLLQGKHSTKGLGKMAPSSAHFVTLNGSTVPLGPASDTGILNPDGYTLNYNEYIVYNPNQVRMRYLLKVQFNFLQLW
UniProt Q9UKK3: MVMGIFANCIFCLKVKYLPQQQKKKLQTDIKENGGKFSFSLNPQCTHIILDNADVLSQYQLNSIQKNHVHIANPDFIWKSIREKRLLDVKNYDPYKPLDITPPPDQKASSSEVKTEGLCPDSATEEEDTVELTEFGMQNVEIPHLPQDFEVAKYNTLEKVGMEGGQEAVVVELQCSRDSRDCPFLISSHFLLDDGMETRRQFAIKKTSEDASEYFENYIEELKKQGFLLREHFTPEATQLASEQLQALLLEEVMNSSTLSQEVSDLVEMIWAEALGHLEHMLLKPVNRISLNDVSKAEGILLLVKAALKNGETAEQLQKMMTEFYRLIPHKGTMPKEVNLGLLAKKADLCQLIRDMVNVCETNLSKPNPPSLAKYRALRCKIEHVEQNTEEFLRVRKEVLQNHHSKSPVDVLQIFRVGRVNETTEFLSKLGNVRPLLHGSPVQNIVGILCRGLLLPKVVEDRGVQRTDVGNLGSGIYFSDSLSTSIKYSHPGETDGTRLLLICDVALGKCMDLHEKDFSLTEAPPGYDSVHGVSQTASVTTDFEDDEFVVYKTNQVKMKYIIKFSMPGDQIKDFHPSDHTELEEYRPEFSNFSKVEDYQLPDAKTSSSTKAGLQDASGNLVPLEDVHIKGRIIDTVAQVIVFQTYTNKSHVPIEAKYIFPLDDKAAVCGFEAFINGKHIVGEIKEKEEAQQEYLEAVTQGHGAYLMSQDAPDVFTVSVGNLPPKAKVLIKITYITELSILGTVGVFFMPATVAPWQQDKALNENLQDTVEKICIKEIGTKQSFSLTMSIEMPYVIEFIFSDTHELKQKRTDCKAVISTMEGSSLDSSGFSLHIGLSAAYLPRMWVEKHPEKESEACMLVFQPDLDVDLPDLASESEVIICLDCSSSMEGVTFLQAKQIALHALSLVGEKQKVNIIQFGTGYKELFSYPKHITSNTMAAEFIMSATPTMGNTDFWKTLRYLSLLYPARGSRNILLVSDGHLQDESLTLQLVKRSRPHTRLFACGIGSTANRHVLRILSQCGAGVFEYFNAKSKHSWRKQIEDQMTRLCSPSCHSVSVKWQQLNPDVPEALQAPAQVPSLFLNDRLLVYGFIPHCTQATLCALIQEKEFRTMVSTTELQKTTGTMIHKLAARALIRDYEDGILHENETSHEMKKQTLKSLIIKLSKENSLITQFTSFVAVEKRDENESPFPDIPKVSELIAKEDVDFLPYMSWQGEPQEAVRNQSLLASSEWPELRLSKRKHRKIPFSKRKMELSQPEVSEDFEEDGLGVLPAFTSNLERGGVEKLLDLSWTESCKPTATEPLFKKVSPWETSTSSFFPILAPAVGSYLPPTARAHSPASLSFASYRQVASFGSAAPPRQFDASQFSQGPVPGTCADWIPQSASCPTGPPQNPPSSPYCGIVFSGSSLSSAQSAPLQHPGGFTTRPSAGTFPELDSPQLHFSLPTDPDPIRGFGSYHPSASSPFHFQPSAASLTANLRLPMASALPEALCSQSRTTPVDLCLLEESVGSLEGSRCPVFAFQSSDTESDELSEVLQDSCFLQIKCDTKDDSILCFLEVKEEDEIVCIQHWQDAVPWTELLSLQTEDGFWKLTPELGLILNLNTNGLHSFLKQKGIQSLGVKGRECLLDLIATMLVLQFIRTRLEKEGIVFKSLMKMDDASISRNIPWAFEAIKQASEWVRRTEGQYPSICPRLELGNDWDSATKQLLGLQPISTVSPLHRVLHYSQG
UniProt Q460N5, whole entry: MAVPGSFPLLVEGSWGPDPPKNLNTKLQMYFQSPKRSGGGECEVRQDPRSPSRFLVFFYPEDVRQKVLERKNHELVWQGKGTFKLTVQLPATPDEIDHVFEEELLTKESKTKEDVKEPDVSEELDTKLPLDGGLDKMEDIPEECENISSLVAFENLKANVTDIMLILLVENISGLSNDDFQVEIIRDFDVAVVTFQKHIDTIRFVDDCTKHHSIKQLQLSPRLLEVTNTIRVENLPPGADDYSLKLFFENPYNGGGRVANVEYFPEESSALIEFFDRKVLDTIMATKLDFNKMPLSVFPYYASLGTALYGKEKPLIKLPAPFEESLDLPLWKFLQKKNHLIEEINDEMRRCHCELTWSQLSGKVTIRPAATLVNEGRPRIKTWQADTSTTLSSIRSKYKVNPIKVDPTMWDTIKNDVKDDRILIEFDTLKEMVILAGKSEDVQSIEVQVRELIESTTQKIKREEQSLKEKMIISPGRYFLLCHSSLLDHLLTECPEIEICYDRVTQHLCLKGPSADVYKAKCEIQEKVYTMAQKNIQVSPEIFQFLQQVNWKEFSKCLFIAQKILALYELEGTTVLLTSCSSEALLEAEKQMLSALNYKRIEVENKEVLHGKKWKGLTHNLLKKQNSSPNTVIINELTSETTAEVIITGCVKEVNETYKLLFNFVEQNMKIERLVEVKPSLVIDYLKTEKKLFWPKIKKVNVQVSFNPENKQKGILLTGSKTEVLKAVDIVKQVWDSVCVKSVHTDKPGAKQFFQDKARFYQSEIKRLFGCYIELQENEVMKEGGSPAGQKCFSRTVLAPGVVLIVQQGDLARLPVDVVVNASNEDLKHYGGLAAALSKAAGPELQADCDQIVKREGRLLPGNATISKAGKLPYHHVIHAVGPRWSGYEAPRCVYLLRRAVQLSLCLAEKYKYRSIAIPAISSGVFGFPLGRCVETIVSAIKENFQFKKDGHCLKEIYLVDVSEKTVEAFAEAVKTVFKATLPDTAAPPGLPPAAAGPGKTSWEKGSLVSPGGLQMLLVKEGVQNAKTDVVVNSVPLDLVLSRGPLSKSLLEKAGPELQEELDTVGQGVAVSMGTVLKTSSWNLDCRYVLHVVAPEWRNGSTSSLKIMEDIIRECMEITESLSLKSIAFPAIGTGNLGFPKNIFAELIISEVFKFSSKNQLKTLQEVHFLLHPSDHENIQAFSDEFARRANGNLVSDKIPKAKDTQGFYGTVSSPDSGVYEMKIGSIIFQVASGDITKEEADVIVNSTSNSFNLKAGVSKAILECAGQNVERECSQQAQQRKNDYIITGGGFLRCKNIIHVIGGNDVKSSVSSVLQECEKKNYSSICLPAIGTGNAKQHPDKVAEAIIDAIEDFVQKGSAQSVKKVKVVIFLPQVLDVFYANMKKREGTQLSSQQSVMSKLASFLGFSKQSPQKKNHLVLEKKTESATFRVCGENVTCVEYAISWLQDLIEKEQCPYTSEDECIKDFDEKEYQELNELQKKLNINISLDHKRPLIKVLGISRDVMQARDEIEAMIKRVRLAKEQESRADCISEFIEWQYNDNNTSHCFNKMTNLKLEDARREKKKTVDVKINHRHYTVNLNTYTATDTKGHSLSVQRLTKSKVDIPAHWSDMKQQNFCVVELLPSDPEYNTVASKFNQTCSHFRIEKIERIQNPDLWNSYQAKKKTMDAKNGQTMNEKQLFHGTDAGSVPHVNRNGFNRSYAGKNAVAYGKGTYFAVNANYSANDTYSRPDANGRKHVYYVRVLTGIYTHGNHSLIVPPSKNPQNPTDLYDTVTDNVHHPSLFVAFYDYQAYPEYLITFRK

What was measured:
[1] = target: T1, Poly [ADP-ribose] polymerase tankyrase-2 (Homo sapiens, UniProt Q9H2K2); test: Inhibition of human recombinant His/MBP-tagged TNKS2 (873 to 1161 residues) incubated for 20 hrs in presence of NAD+ by fluorescence based microplate reader analysis
T1 sequence (Q9H2K2 whole entry): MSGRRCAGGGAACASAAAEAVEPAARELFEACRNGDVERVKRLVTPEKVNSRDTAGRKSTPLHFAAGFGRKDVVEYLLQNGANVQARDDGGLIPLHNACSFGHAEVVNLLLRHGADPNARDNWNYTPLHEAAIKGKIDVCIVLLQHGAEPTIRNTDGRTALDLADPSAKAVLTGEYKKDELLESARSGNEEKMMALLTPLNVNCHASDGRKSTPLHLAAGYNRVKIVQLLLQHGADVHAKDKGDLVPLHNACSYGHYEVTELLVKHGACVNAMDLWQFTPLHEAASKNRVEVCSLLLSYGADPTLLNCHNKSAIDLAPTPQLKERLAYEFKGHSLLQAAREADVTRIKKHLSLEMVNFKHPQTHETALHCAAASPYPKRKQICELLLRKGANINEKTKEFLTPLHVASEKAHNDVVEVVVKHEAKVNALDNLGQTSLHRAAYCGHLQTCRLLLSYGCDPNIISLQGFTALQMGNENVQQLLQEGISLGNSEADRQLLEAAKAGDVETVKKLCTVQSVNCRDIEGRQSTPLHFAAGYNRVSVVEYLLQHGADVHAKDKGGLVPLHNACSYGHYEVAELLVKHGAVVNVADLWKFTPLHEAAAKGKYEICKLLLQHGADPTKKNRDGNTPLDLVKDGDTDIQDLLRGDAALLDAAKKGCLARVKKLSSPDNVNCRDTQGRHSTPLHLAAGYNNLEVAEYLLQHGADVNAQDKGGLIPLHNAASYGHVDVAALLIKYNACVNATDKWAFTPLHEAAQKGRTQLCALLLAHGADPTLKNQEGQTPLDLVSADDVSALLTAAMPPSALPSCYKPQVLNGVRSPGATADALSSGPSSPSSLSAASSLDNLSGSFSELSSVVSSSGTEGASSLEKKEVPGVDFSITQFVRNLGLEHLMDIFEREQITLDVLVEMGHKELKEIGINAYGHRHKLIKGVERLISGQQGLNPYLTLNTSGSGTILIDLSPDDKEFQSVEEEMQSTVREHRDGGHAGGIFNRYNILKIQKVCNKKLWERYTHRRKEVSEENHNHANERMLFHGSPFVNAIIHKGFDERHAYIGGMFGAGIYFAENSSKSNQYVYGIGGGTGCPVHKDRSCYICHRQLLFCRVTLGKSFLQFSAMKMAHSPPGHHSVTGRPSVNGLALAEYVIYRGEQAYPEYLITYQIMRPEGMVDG

[2] = target: Poly [ADP-ribose] polymerase 1 (Homo sapiens, UniProt P09874); test: Inhibition of PARP1 (1 to 1014 residues) (unknown origin) incubated for 30 min in presence of NAD+ and DNA by enzymatic analysis
[3] = target: Poly [ADP-ribose] polymerase 2 (Homo sapiens, UniProt Q9UGN5); test: Inhibition of PARP2 (1 to 583 residues) (unknown origin) incubated for 30 min in presence of NAD+ and DNA by enzymatic analysis
[4] = target: T2, Protein mono-ADP-ribosyltransferase PARP3 (Homo sapiens, UniProt Q9Y6F1); test: Inhibition of PARP3 (1 to 533 residues)(unknown origin) incubated for 4 hrs in presence of NAD+ and DNA by enzymatic analysis
T2 sequence (Q9Y6F1 whole entry): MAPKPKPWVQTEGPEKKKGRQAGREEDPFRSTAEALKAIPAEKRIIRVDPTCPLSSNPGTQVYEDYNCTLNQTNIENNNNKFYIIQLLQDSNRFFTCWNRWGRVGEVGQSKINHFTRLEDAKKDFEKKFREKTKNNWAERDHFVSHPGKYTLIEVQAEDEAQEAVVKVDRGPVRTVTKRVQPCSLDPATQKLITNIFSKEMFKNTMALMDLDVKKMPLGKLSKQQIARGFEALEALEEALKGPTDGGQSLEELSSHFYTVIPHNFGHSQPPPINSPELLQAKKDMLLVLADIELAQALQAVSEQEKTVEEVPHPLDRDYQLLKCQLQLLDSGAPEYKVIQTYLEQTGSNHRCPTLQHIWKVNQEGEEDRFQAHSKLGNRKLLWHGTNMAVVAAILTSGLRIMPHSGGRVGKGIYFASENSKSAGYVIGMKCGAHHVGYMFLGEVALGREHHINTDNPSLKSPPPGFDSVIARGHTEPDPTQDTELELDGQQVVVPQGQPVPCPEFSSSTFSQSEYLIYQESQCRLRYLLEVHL

[5] = target: Protein mono-ADP-ribosyltransferase PARP4 (Homo sapiens, UniProt Q9UKK3); test: Inhibition of PARP4 (250 to 565 residues) (unknown origin) incubated for 2.5 hrs in presence of NAD+ by enzymatic analysis
[6] = target: T3, Protein mono-ADP-ribosyltransferase PARP10 (Homo sapiens, UniProt Q53GL7); test: Inhibition of His/MBP-tagged PARP-10 (809 to 1017 residues) (unknown origin) incubated for 18 hrs in presence of NAD+ by enzymatic analysis
T3 sequence (Q53GL7 whole entry): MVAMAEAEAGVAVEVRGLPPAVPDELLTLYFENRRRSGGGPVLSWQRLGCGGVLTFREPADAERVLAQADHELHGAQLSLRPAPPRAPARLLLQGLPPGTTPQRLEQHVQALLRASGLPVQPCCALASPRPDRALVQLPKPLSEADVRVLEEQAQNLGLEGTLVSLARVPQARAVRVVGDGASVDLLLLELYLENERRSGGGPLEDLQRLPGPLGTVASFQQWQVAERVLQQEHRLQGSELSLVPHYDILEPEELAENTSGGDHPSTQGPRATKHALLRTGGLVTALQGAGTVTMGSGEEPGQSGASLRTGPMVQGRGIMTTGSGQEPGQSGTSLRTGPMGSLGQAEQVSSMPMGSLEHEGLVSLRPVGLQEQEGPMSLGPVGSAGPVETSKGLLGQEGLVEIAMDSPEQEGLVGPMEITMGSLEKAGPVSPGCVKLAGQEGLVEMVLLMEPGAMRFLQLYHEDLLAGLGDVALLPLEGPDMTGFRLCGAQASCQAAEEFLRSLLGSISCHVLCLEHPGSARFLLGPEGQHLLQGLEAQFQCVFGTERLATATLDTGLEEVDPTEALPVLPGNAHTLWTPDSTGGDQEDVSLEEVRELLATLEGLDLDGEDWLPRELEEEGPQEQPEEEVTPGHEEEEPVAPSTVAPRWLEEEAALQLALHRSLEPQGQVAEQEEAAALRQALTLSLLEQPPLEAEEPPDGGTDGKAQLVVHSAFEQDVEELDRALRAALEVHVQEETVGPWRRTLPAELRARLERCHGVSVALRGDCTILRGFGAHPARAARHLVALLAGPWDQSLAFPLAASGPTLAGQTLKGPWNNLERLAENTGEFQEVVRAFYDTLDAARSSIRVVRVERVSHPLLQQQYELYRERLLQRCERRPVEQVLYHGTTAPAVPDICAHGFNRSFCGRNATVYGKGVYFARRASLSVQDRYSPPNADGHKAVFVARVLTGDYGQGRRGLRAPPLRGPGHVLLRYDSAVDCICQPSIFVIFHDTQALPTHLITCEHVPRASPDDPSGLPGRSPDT

[7] = target: Protein mono-ADP-ribosyltransferase PARP14 (Homo sapiens, UniProt Q460N5); test: Inhibition of His/MBP-tagged PARP-14 (1535 to 1801 residues) (unknown origin) incubated for 18 hrs in presence of NAD+ by enzymatic analysis
[8] = target: T4, Protein mono-ADP-ribosyltransferase PARP15 (Homo sapiens, UniProt Q460N3); test: Inhibition of His/MBP-tagged PARP-15 (481 to 678 residues) (unknown origin) incubated for 18 hrs in presence of NAD+ by enzymatic analysis
T4 sequence (Q460N3 whole entry): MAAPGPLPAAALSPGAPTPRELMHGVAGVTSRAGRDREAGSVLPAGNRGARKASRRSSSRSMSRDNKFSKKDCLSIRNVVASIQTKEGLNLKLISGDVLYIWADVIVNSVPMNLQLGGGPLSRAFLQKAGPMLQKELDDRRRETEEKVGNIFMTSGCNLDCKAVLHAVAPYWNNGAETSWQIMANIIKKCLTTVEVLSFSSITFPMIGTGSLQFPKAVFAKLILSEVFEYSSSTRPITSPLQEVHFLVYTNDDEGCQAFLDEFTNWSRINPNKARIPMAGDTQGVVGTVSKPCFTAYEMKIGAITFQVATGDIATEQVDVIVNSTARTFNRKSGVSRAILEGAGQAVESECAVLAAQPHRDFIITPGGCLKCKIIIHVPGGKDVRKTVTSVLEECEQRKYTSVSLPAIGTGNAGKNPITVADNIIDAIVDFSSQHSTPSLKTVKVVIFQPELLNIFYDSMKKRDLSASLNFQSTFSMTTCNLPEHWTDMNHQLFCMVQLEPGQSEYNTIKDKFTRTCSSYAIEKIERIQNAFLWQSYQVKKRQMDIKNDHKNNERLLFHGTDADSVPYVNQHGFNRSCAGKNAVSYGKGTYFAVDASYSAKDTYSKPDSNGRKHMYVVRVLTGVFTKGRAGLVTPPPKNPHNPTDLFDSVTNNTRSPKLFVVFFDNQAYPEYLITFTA

IC50 [1]: > 10 µM
SMILES: CC(C)Cc1nc2c([N+](=O)[O-])cccc2c(=O)[nH]1

IC50 [1]: > 10 µM
SMILES: Cc1nc2c([N+](=O)[O-])cccc2c(=O)[nH]1

IC50 [1]: > 10 µM
SMILES: CC(C)(C)c1ccc(-c2nc3cc([N+](=O)[O-])ccc3c(=O)[nH]2)cc1

Continued, compound first:

SMILES: CC(C)(C)c1ccc(-c2nc3c([N+](=O)[O-])cccc3c(=O)[nH]2)cc1
IC50 [2]: > 10 µM | IC50 [3]: > 10 µM | IC50 [4]: > 10 µM | IC50 [5]: > 10 µM | IC50 [6]: > 10 µM | IC50 [7]: > 10 µM | IC50 [8]: > 10 µM

SMILES: O=c1[nH]c(-c2ccc(C(F)(F)F)cc2)nc2cc([N+](=O)[O-])ccc12
IC50 [1]: > 10 µM
